Protein sequences, listed by entry. Tags and fused reporters are not part of them. Residues count along the entry.
UniProt Q96RR4, 161-449: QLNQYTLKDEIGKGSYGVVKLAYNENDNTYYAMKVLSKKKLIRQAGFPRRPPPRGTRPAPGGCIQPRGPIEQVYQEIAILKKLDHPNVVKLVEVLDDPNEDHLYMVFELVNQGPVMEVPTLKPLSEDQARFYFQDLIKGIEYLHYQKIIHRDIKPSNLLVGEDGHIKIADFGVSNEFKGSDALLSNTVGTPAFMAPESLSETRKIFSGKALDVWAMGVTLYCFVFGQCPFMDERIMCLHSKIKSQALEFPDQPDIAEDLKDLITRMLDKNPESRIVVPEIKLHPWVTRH

In paper doi:10.1101/538157v1 (biorxiv, 2019):

Target: CAMKK2-KD (kinase domain of CAMKK2) (Homo sapiens, UniProt Q96RR4)
Experiment: biochemical
Conditions: read-out: ΔTm (°C) 96-well

COC(=O)[C@@]1(O)C[C@H]2O[C@]1(C)n1c3ccccc3c3c4c(c5c6ccccc6n2c5c31)C(=O)NC4 [K252a]
ΔTm at 12 µM: 18.3 °C
